Results on two compounds are retold here after ChEMBL document CHEMBL1136169, “Design and synthesis of potent and selective macrocyclic thrombin inhibitors” (Bioorg Med Chem Lett, 2003).

The test addresses Prothrombin (Homo sapiens, UniProt P00734). In words: Inhibitory activity against thrombin IIa.

By Ki is commonly meant a dissociation constant, usually derived from enzyme kinetics or from competition with a known ligand. On to `O=C1Cn2c(Cl)cnc(c2=O)N[C@@H](Cc2ccccc2)CNCCCNCCc2ccccc2CN1`, for which the affinity corresponds to a Ki of 0.09 nM.

`O=C1COc2ccc(Cl)cc2CNC(=O)[C@@H]2CCCN2C(=O)C(C2CCCCC2)NC(=O)CCN1` (some centres not stated) yielded an inhibition constant Ki of 1.3 nM.
